GIV-Gai inh = blocks GIV peptide binding to rat Galpha-i3. P08753. Galpha-i3/FITC-GIV peptide fluorescence polarization, 90 min; stronger effect = lower value; scaled: aluminum fluoride 0%, vehicle 100%. percent of control (FP), % (concentration not given with the values). hit rate 0.42% among 210,000. AID 1224905;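 active means replicate mean at 85% of control or lower, very high polarization wells dropped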;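 further: wells of about 15 µL received 100 nL stock; the first replicate is given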
GIV-Gai FP conf = GIV-Galpha-i3 inhibition, FP confirmation; shares compounds with GIV-Gai inh; fluorescence polarization, mP at 100 µM; FITC-GIV peptide binding to Galphai3, fluorescence polarization; active compounds read low; 38% of 580 active;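 active means inhibition score of 15 or more, meaning 100 minus mean polarization as percent of control over three replicates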;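 further: lower mP means peptide displaced from Galphai3 so more inhibition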
GIV-Gai AS conf = GIV-Galpha-i3 inhibition, AlphaScreen confirmation | shares compounds with GIV-Gai inh | AlphaScreen Galphai3-GIV binding, purified proteins, 90 min; active compounds read low | AlphaScreen counts at 100 µM | 39% of 580 active;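 active means inhibition score at or above a set limit, where the score is 100 minus the three-replicate mean percent of control signal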
The depositor's hits bear a star. The full list was thinned out, with hits kept by preference.

SMILES	GIV-Gai inh	others
O=C1NC(=Nc2ccccc2)S/C1=C/c1cc(Br)ccc1O	107
Cc1ccc2c(c1)NC(=O)c1cc(S(=O)(=O)N3CCSCC3)c(Cl)cc1O2	105
Cc1ccccc1C1CC(c2ccc(NS(C)(=O)=O)cc2)=NN1C(=O)CCC(=O)O (stereo not given)	101
Cc1cc(C)n2nc(CN(C(=O)CC(C)C)c3ccccc3Cl)nc2n1	109
Cc1cc(C)n2nc(CN(C(=O)CC(C)C)c3ccccc3)nc2n1	92	GIV-Gai FP conf=71;GIV-Gai AS conf=35999
CCCC(=O)N(Cc1nc2nc(C)cc(C)n2n1)c1ccccc1	108
C=CCN1C(=O)S/C(=C/c2ccc(N3CCOCC3)cc2)C1=O	95	GIV-Gai FP conf=87;GIV-Gai AS conf=44529
C=CCN1C(=O)S/C(=C\c2cc(OC)ccc2OC)C1=O	112
O=C1S/C(=C\c2ccccc2)C(=O)N1CN1CCOCC1	97
CCCn1c2ccccc2c2cnn(CC(=O)Nc3ccccc3)c(=O)c21	105
O=C(Cc1c(Sc2ccccc2)[nH]c2ccccc12)N1CCN(c2ccccn2)CC1	101
Cc1ccc(-c2nc3nc(C)cc(N4CCN(c5ccccn5)CC4)n3n2)cc1	104
Cc1c(Nc2nc3nonc3nc2Nc2ccc(F)cc2)c(=O)n(-c2ccccc2)n1C	106
Cc1c(Nc2nc3nonc3nc2Nc2cccc(Cl)c2)c(=O)n(-c2ccccc2)n1C	104
Cc1c(Nc2nc3nonc3nc2Nc2ccccc2F)c(=O)n(-c2ccccc2)n1C	126	GIV-Gai FP conf=68;GIV-Gai AS conf=44712
COc1ccc(/C=C2\SC(=O)NC2=S)cc1OC	136
Cc1ccc(/C=C2/SC(=O)NC2=S)o1	80*	GIV-Gai FP conf=57*;GIV-Gai AS conf=2262*
Cn1cc(/C=C2\SC(=O)NC2=S)c2ccccc21	111
CCOc1ccc(-n2cc(C(=O)Nc3ccc(N4CCOCC4)cc3)nn2)cc1	103
COc1ccc(CNC(=O)CCn2cnc3onc(-c4cccc(F)c4)c3c2=O)cc1	105
CCCCSc1nnc2c(n1)OC(c1ccc(Br)s1)Nc1ccccc1-2 (stereo not given)	40*	GIV-Gai FP conf=89;GIV-Gai AS conf=19457
CCCCSc1nnc2c(n1)OC(c1cccs1)Nc1ccccc1-2 (stereo not given)	108
CCCCSc1nnc2c(n1)OC(c1cc3c(cc1Br)OCO3)Nc1ccccc1-2 (stereo not given)	99
Cc1ccc(C(=O)NC2CCCc3ccccc32)cc1NC(=O)c1nsc2ccccc12 (stereo not given)	103
Cc1cc(F)ccc1NC(=O)c1[nH]c(C)c(S(=O)(=O)N2CCCC2)c1C	103

Of the compounds above, these contain a thiophene ring, fused or not:
SMILES	GIV-Gai inh	others
CCCCSc1nnc2c(n1)OC(c1ccc(Br)s1)Nc1ccccc1-2 (stereo not given)	40*	GIV-Gai FP conf=89;GIV-Gai AS conf=19457
CCCCSc1nnc2c(n1)OC(c1cccs1)Nc1ccccc1-2 (stereo not given)	108

Returning to the listing, starting 2 compounds before the break.
SMILES	GIV-Gai inh	others
Cc1ccc(C(=O)NC2CCCc3ccccc32)cc1NC(=O)c1nsc2ccccc12 (stereo not given)	103
Cc1cc(F)ccc1NC(=O)c1[nH]c(C)c(S(=O)(=O)N2CCCC2)c1C	103
COc1ccc(C(C2C(=O)N(c3ccccc3)N=C2C)C2C(=O)N(c3ccccc3)N=C2C)cc1OC (stereo not given)	77*	GIV-Gai FP conf=62;GIV-Gai AS conf=15958*
COc1ccccc1C(C1C(=O)N(c2ccccc2)N=C1C)C1C(=O)N(c2ccccc2)N=C1C (stereo not given)	114
CC1=NN(c2ccccc2)C(=O)C1C (stereo not given)	104
Cc1ccc(NC(=O)N2CCN(c3cc(=O)n4nc(-c5ccccc5C)sc4n3)CC2)cc1F	84*	GIV-Gai FP conf=80;GIV-Gai AS conf=26514
Cc1ccccc1-c1nn2c(=O)cc(N3CCN(C(=O)Nc4ccc(Cl)cc4)CC3)nc2s1	101
Cc1cccc(NC(=O)N2CCN(c3cc(=O)n4nc(-c5ccccc5C)sc4n3)CC2)c1	104
O=C(CSc1nnc(-c2cccnc2)o1)NC1CCCC1	96
O=C(O)c1cccc(NC(=O)C2CCCCC2C(=O)O)c1 (stereo not given)	102
O=C(O)c1cc(N2CCCC2)ccc1NS(=O)(=O)c1ccc(Cl)cc1	107
COc1ccc(CCNC(=O)c2sc3ncnc(N4CCOCC4)c3c2C)cc1OC	97
O=C(NC1CCCC1)N1CCc2cc(S(=O)(=O)Nc3ccc(Cl)cc3)ccc21	105
O=C(CCCn1c(=O)c2cccn2c2cccnc21)N1CCC(Cc2ccccc2)CC1	103
S=C1NCc2ccsc2S1	49*	GIV-Gai FP conf=51*;GIV-Gai AS conf=31760*
Cc1ccc(-c2noc3c(NCc4ccc5c(c4)OCO5)ncnc23)cc1	105
Oc1ccc(NCc2cccs2)cc1	104
Cc1ccc(CNc2nc3ccccc3s2)s1	102
Cc1ccc(CNc2ccc(O)cc2)s1	75*	GIV-Gai FP conf=50*;GIV-Gai AS conf=9116*
CSc1nc2ccc(S(=O)(=O)Nc3ccc4c(c3)COC4=O)cc2s1	106
Clc1ccc(-c2noc3ncnc(NC4CCCC4)c23)cc1	105
CCOC(=O)c1ccc(-n2c(C)cc(C=C3C(=O)NC(=S)NC3=O)c2C)cc1	78*	GIV-Gai FP conf=64;GIV-Gai AS conf=10801*
CCOC(=O)c1ccc(-n2c(C)cc(/C=N/O)c2C)cc1	107
CCOC(=O)c1ccc(-n2c(C)cc(C=C3C(=O)N(C)C(=S)N(C)C3=O)c2C)cc1	113
CCOc1cc(C2C(C#N)=C(N)Oc3n[nH]c(-c4ccc(OC)cc4)c32)cc([N+](=O)[O-])c1O (stereo not given)	108
CCC(C(=O)N1CCC(C)CC1)N1C(=O)CCCc2ccccc21 (stereo not given)	111
CONS(=O)(=O)c1ccc(OCC(=O)OC)cc1	100

3 records drawn at random from the list so far:
SMILES	GIV-Gai inh	others
Cn1cc(/C=C2\SC(=O)NC2=S)c2ccccc21	111
CCC(C(=O)N1CCC(C)CC1)N1C(=O)CCCc2ccccc21 (stereo not given)	111
O=C(Cc1c(Sc2ccccc2)[nH]c2ccccc12)N1CCN(c2ccccn2)CC1	101

Further records follow.
SMILES	GIV-Gai inh	others
Cn1c(=O)n(C)c2cc(/C=C(/C#N)C(=O)NCc3ccco3)ccc21	96
CCOc1ccc2ccccc2c1/C=C(\C#N)C(=O)NCc1ccco1	100
N#C/C(=C\c1c(Oc2ccccc2)nc2ccccn2c1=O)C(=O)NCc1ccco1	81*	GIV-Gai FP conf=76;GIV-Gai AS conf=31816
Cc1cc(C)c(S(=O)(=O)NCCn2c(-c3ccc(F)cc3)nc3cccnc32)c(C)c1	112
COc1ccc2[nH]cc(CCNC(=O)c3cccc(NC(=O)c4nnc(CC(C)C)s4)c3)c2c1	105
CC(C)NC(=O)c1nsc(C(=O)N2CCC3(CC2)OCCO3)c1N	102
Cc1[nH]nc2oc(=O)c(CC(=O)O)c(C)c12	84*	GIV-Gai FP conf=59*;GIV-Gai AS conf=27884
Cc1cc2oc(=O)c(CC(=O)O)c(C)c2c2occ(-c3ccc(F)cc3)c12	101
Cc1[nH]nc2oc(=O)c(Cc3c(F)cccc3Cl)c(C)c12	100
O=C(Nc1ccccc1)OC(CN1CCN(c2ccccc2)CC1)C(F)(F)F (stereo not given)	99
Cc1ccc(CN2CCC(CNc3ncnc4onc(C(=O)O)c34)C2)cc1 (stereo not given)	112
COc1cccc(-c2cc(-c3ccccc3)c(C#N)c(SCC(=O)Nc3nc4ccccc4o3)n2)c1	115
COc1ccc(NC(=O)c2sc3nc4c(c(-c5ccco5)c3c2N)CCCC4)cc1	84*	GIV-Gai FP conf=65;GIV-Gai AS conf=55254
COc1ccc(NC(=O)c2sc3nc4c(c(-c5ccco5)c3c2N)CCCCC4)cc1	106
COc1ccc(NC(=O)c2sc3nc4c(c(-c5ccco5)c3c2N)CCC4)cc1	107
CCOC(=O)c1c(C)[nH]c(C)c1S(=O)(=O)NCC(=O)NC(C)(C)C	105
Cc1ccc(C(=O)Sc2ncc(C(F)(F)F)cc2Cl)cc1	100
CCOC(=O)C1=C(N)n2c(s/c(=C\c3ccncc3)c2=O)=C(C#N)C1c1ccncc1 (stereo not given)	108
O=C(O)C(=Cc1ccc(-c2cccc(C(F)(F)F)c2)o1)C(=O)O	84*	GIV-Gai FP conf=67;GIV-Gai AS conf=15696*
N#C/C(=C/c1ccc(-c2cccc(C(F)(F)F)c2)o1)c1ccc(C(=O)O)cc1	111

Screening data from PubChem.
